Most compounds without a hit are left out; they make up all but 16% or so of the library.
TDP1 block: inhibitors of human tyrosyl-DNA phosphodiesterase TDP1. recombinant TDP1, AlphaScreen DNA substrate cleavage. Potency, µM (highest dose often 130 µM), for the others: top-dose activity change, negative = inhibition, hits mostly inhibitors. AID 485290. hit rate 0.28% among 350,000. Q9NUW8; note: potency is the fitted concentration of half-maximal effect; % is set by controls: 0 for no effect and ±100 for the full control effect; nearly all actives have a fitted effect of over 40% in size
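Compounds were preincubated with Tdp1 (1 nM final) for 15 min at room temperature before substrate (15 nM final) started a 5 min reaction; beads (10 ug/ml final) were then added for 10 min before AlphaScreen detection.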
miR-21 reporter: miR-21 reporter, rising signal; HeLa miR-21 FLuc reporter, luciferase, 48 h; Potency, µM (titrated, usually from 38.3 µM), for the others: at the top dose reporter change, positive = more light; 340,000 tested, under 10 active; AID 2288; active = well fitted rising curve with a large enough effect; inconclusive = small, poorly fitted or top-dose-only effect; inactive = no such curve, though single readings can be large or run the other way;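 also: % of control where 0% means no effect; miR-21 action dims this reporter so a rising signal means less miR-21 action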
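HeLa miR-21-FLuc reporter line, endogenous miR-21; 2000 cells/well in DMEM/10% FBS; compound titration up to ~40uM final, 48 h, 37 degree Celsius; luciferase detection reagent, 15 min lysis, CCD luminescence.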
uPA generation: inhibitors of cell surface uPA generation. cell surface uPA generation assay, qHTS. Potency, µM (series often up to 38.3 µM), without a hit: at the top dose activity change, negative = inhibition, most hits filed as inhibitors. hit rate 0.31% among 330,000. AID 540303; active = well fitted inhibition curve with a large enough effect; inconclusive = small, poorly fitted or top-dose-only effect; inactive = no such curve, though single readings can be large or run the other way; tested in mouse RAW 264.7 cells; note: potency is the fitted concentration of half-maximal effect; % is set by controls: 0 for no effect and ±100 for the full control effect; nearly all actives have a fitted effect of over 55% in size
DT40 TDP1 no CPT: qHTS for Inhibitors of human tyrosyl-DNA phosphodiesterase 1 (TDP1): qHTS in cells in absence of CPT. DT40 Tdp1-/- hTDP1 cells, no CPT, ATP luminescence, 48 h. Potency, µM (top dose mostly 46.2 µM), for inactives: at the highest dose activity change, negative = growth inhibition, hits mostly inhibitors. hit rate 15% among 420,000; note: potency is the fitted concentration of half-maximal effect; % is set by controls: 0 for no effect and ±100 for the full control effect; nearly all actives have a fitted effect of over 55% in size
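Camptothecin absent (DMSO only). Human TDP1-complemented DT40 knockout cells, 400 cells/well, 37 °C for minimum 48 hr; ATP measured via CellTiter-Glo, 30 min dark incubation, luminescence.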
DT40 TDP1 CPT: DT40-hTDP1 cell growth loss with CPT. Potency, µM (top dose mostly 46.2 µM), without a hit: top-dose activity change, negative = growth inhibition, most hits filed as inhibitors. chicken DT40 Tdp1-/-;hTDP1 cells + 20 nM CPT, ATP luminescence, 48 h. AID 686979. hit rate 12% among 420,000; note: potency is the fitted concentration of half-maximal effect; % is set by controls: 0 for no effect and ±100 for the full control effect; nearly all actives have a fitted effect of over 55% in size
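Chicken DT40 Tdp1-/- cells stably complemented with human TDP1 were seeded at 400 cells/well in medium containing 20 nM camptothecin, exposed to pin-transferred compounds, and grown at 37 °C for at least 48 hr. Viability was read as ATP luminescence.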
Active calls of the source: *. Unless noted, calls come from the whole dose curve; as a rule, active = well fitted curve in the direction sought with a large enough effect; inconclusive = small, poorly fitted or top-dose-only effect, or another doubt; inactive = no such curve, though single readings can be large; an effect the other way counts as inactive or inconclusive.

`Cc1ccc(C(=O)N/C(=C/c2ccccc2)C(=O)NC(Cc2ccccc2)C(=O)O)cc1` (stereo unspecified) gave TDP1 block 1%, miR-21 reporter -18%, uPA generation 2%, DT40 TDP1 no CPT 6% and DT40 TDP1 CPT -19%.
Screening O=C(Cc1ccccc1[N+](=O)[O-])Nc1cccc(S(=O)(=O)NC2=NCCCCC2)c1 returned TDP1 block -1%, uPA generation 1%, DT40 TDP1 no CPT -28% and DT40 TDP1 CPT -5%.
For CCc1ccccc1OCC(=O)Nc1cccc(S(=O)(=O)NC2=NCCCCC2)c1 the results were TDP1 block 2%, uPA generation -14%, DT40 TDP1 no CPT inconclusive and DT40 TDP1 CPT 18µM*.
For CN(C)c1ccc(C(=O)Nc2ccc(S(=O)(=O)NC3=NCCCCC3)cc2)cc1 the results were TDP1 block 5%, miR-21 reporter -12%, DT40 TDP1 no CPT -5% and DT40 TDP1 CPT -21%.
For O=C(/C=C/c1ccc([N+](=O)[O-])cc1)Nc1cccc(S(=O)(=O)NC2=NCCCCC2)c1 the results were TDP1 block 0%, uPA generation -11%, DT40 TDP1 no CPT 15µM* and DT40 TDP1 CPT 15µM*.
CC(C)c1ccc(C(=O)Nc2ccc(S(=O)(=O)NC3=NCCCCC3)cc2)cc1 was read as DT40 TDP1 no CPT 23µM* and DT40 TDP1 CPT 16µM*.
O=C(Nc1cccc(S(=O)(=O)NC2=NCCCCC2)c1)c1ccc(Cl)cc1 was read as TDP1 block -4%, uPA generation -8%, DT40 TDP1 no CPT 12µM* and DT40 TDP1 CPT 23µM*.
Screening COc1ccccc1OCC(=O)Nc1cccc(S(=O)(=O)NC2=NCCCCC2)c1 returned uPA generation 2%, DT40 TDP1 no CPT -28% and DT40 TDP1 CPT -24%.
`COc1ccc(-c2cnc(NCc3ccc(C)cc3)n2C)cc1` gave TDP1 block 1%, miR-21 reporter 0%, DT40 TDP1 no CPT inconclusive and DT40 TDP1 CPT inconclusive.
Screening CC1(C)CC(=O)C2=C(C1)N(Cc1ccco1)C(=O)C2(NC(=O)c1cccnc1)C(F)(F)F (stereo unspecified) returned TDP1 block 2%, miR-21 reporter -3%, uPA generation 1%, DT40 TDP1 no CPT -6% and DT40 TDP1 CPT -4%.
Cc1noc(C)c1S(=O)(=O)N1Cc2ccccc2CC1C(=O)N(C)C (stereo unspecified) was read as TDP1 block 2%, miR-21 reporter 0%, uPA generation -7%, DT40 TDP1 no CPT -11% and DT40 TDP1 CPT -1%.
`O=C(O)CCSc1nnc(COc2ccc(Cl)cc2)n1-c1ccccc1` gave TDP1 block 4%, miR-21 reporter -1%, uPA generation 5%, DT40 TDP1 no CPT 13% and DT40 TDP1 CPT -5%.
`O=C(NC(=S)Nc1cccc(S(=O)(=O)NC2=NCCC2)c1)c1cc(-c2ccco2)nc2ccccc12` gave TDP1 block 0%, miR-21 reporter 21%, uPA generation -11%, DT40 TDP1 no CPT 3.7µM* and DT40 TDP1 CPT 4.6µM*.
Screening O=C(COc1cccc(C(F)(F)F)c1)Nc1cccc(S(=O)(=O)NC2=NCCCCC2)c1 returned uPA generation inconclusive, DT40 TDP1 no CPT 26µM* and DT40 TDP1 CPT 23µM*.
For Cc1cc(C)nc(SCC(=O)Nc2ccc(S(=O)(=O)NC(C)(C)C)cc2)n1 the results were TDP1 block 0%, miR-21 reporter 7%, DT40 TDP1 no CPT 15µM* and DT40 TDP1 CPT 16µM*.

Grouped by structure, the entries above with a CF3 group
Screening CC1(C)CC(=O)C2=C(C1)N(Cc1ccco1)C(=O)C2(NC(=O)c1cccnc1)C(F)(F)F (stereo unspecified) returned TDP1 block 2%, miR-21 reporter -3%, uPA generation 1%, DT40 TDP1 no CPT -6% and DT40 TDP1 CPT -4%.
Screening O=C(COc1cccc(C(F)(F)F)c1)Nc1cccc(S(=O)(=O)NC2=NCCCCC2)c1 returned uPA generation inconclusive, DT40 TDP1 no CPT 26µM* and DT40 TDP1 CPT 23µM*.

The main list resumes, repeating the two entries before the break.
Screening O=C(COc1cccc(C(F)(F)F)c1)Nc1cccc(S(=O)(=O)NC2=NCCCCC2)c1 returned uPA generation inconclusive, DT40 TDP1 no CPT 26µM* and DT40 TDP1 CPT 23µM*.
For Cc1cc(C)nc(SCC(=O)Nc2ccc(S(=O)(=O)NC(C)(C)C)cc2)n1 the results were TDP1 block 0%, miR-21 reporter 7%, DT40 TDP1 no CPT 15µM* and DT40 TDP1 CPT 16µM*.
For Cc1cc(C)nc(SCC(=O)Nc2ccc(S(=O)(=O)NCCO)cc2)n1 the results were TDP1 block -2%, miR-21 reporter 1%, DT40 TDP1 no CPT -17% and DT40 TDP1 CPT 1%.
Screening Cc1cc(Cl)ccc1OCC(=O)Nc1cccc(S(=O)(=O)NC2=NCCCCC2)c1 returned TDP1 block -1%, uPA generation -6%, DT40 TDP1 no CPT 18µM* and DT40 TDP1 CPT 12µM*.
O=C(Nc1cccc(S(=O)(=O)NC2=NCCC2)c1)c1cc(-c2ccco2)nc2ccccc12 was read as miR-21 reporter -2%, uPA generation -4%, DT40 TDP1 no CPT -29% and DT40 TDP1 CPT -29%.
`O=C(/C=C/c1ccc(Cl)cc1Cl)Nc1cccc(S(=O)(=O)NC2=NCCC2)c1` gave TDP1 block 5%, miR-21 reporter 23%, uPA generation 4.5µM*, DT40 TDP1 no CPT inconclusive and DT40 TDP1 CPT 16µM*.
O=C(/C=C/c1ccccc1Cl)Nc1cccc(S(=O)(=O)NC2=NCCCCC2)c1 was read as TDP1 block 8%, miR-21 reporter -14%, uPA generation -7%, DT40 TDP1 no CPT inconclusive and DT40 TDP1 CPT inconclusive.
Screening CCOc1ccc(C(=O)NC(=S)Nc2cccc(S(=O)(=O)NC3=NCCC3)c2)cc1 returned TDP1 block 7%, miR-21 reporter 12%, uPA generation -12%, DT40 TDP1 no CPT 0.82µM* and DT40 TDP1 CPT 0.82µM*.
For O=C(COC(=O)CC1CC2CCC1C2)Nc1cccc(S(=O)(=O)NC2=NCCCCC2)c1 (stereo unspecified) the results were TDP1 block 3%, miR-21 reporter 0%, uPA generation 0%, DT40 TDP1 no CPT 29µM* and DT40 TDP1 CPT inconclusive.
Screening Cc1cc(C)nc(NS(=O)(=O)c2ccc(NC(=O)COc3ccc(Cl)cc3C)cc2)n1 returned TDP1 block 5%, miR-21 reporter -17%, DT40 TDP1 no CPT 18µM* and DT40 TDP1 CPT inconclusive.
Screening Cc1ccc(NC(=O)COC(=O)C(NS(=O)(=O)c2ccc(Cl)cc2)C(C)O)c(Br)c1 (stereo unspecified) returned TDP1 block -6%, miR-21 reporter 1%, uPA generation 0%, DT40 TDP1 no CPT -20% and DT40 TDP1 CPT -11%.
Screening CCCOc1ccccc1OCC(=O)Nc1cccc(S(=O)(=O)NC2=NCCC2)c1 returned TDP1 block 1%, uPA generation -5%, DT40 TDP1 no CPT 15µM* and DT40 TDP1 CPT inconclusive.
Screening Cc1ccc(NC(=O)COC(=O)C(NS(=O)(=O)c2ccc(Cl)cc2)C(C)O)cc1C (stereo unspecified) returned TDP1 block -1%, miR-21 reporter 11%, uPA generation -5%, DT40 TDP1 no CPT inconclusive and DT40 TDP1 CPT 26µM*.
O=C(CCl)N=c1sccn1Cc1cccc2ccccc12 was read as TDP1 block 7%, miR-21 reporter inconclusive, uPA generation 0.22µM*, DT40 TDP1 no CPT 2.6µM* and DT40 TDP1 CPT 4.6µM*.
For OC(c1ccc(F)c(F)c1)c1nc(-c2cc(F)cc(F)c2)cs1 (stereo unspecified) the results were DT40 TDP1 no CPT -24% and DT40 TDP1 CPT -22%.

Assay outcomes as filed in PubChem BioAssay.
